Screening data: PubChem, National Center for Advancing Translational Sciences (NCATS)
Compounds with a hit are over-represented: about 0.34% of the library has one in this group of screens.
ASM inhibitor – inhibitors of human secretory acid sphingomyelinase | Potency, µM (top dose mostly 57.5 µM), for inactives: top-dose activity change, negative = inhibition, most hits filed as inhibitors | placental ASM, HMU-PC fluorogenic substrate, 60 min | AID 504937 | actives 0.006% (n = 340,000) | P17405
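Fluorogenic HMU-PC substrate (9 uM final) is turned over by placental ASM in 60 min at 37 C after a 10 min compound preincubation. Reaction ended by alkaline stop (pH 10), with fluorescence read at 386/447 nm.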
Vif-A3F inh – Vif-A3F binding inhibition | HeLa A3F-eYFP + Vif (tagged APOBEC3F with the HIV-1 protein that degrades it), YFP fluorescence increase | Potency, µM (highest dose often 46.1 µM), inactives show top-dose activity, negative = active | actives 0.2% (n = 390,000) | AID 602313; also: % of control where 0% means no effect; nearly all actives have a fitted effect of over 65% in size
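Fluorescence increase (Ex 488/Em 500-530) after overnight compound treatment at 37 deg C flags inhibition of Vif-driven A3F-eYFP loss in stable HeLa A3F-eYFP/Vif cells seeded overnight beforehand.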
Rango dissoc inh – inhibition of RanGTP-driven Rango-importin beta dissociation | O95149+P62826 | Biochemical FRET Rango-importin beta, RanGTP-induced dissociation | Potency, µM (series often up to 46.1 µM), without a hit: at the highest dose activity change, negative = inhibition | actives 0.071% (n = 340,000); calls by dose curve; also: % of control where 0% means no effect; nearly all actives have a fitted effect of over 45% in size
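Quantitative HTS using a FRET biosensor: 0.1 uM Rango, 0.25 uM importin beta, 0.6 uM Ran, 2 mM GTP, 0.2 uM RCC1 final, PBS with DTT, Tween-20 and BSA. Post-read taken 45 min after Ran addition.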
Vif-APOBEC3G blk – inhibitors of Vif-APOBEC3G interaction | Q9HC16 | HeLa A3G-eYFP + Vif (tagged APOBEC3G with the HIV-1 protein that degrades it), YFP fluorescence, overnight | Potency, µM (titrated, usually from 46.1 µM), inactives show at the highest dose activity, negative = active, usual class: inhibitors | actives 0.076% (n = 410,000) | AID 602310; also: % is scaled to controls: 0 for no effect and ±100 for the full control effect; nearly all actives have a fitted effect of over 60% in size
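HeLa cells stably expressing Vif and C-terminally eYFP-tagged A3G, seeded overnight at 37 deg C, then exposed to compound by pintool overnight at 37 deg C. Rise in yellow fluorescence (Ex 488/Em 500-530, Acumen) marks blocked Vif-driven A3G degradation.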
Eya2 inh – Eya2 (human) phosphatase inhibition; recombinant Eya2, OMFP fluorescence dephosphorylation (OMFP is methylfluorescein phosphate); Potency, µM (titrated, usually from 76.9 µM), for the others: at the top dose activity, negative = inhibition, usual class: inhibitors; actives 0.006% (n = 330,000); O00167; also: % is scaled to controls: 0 for no effect and ±100 for the full control effect
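Eya2 (0.2 uM) preincubated 10 min at ambient with compound, then OMFP substrate added at 50 uM; 10 min reaction in 50 mM HEPES pH 7.5, 50 mM NaCl, 5 uM MgCl2, 0.05% BSA, 1 mM DTT. Fluorescence read at Ex 485/Em 525 nm.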
Rango-impB inh – inhibitors of Rango-importin beta complex formation | AID 540263 | Rango CFP/YFP FRET sensor + importin beta, 45 min | Potency, µM (series often up to 92.2 µM), inactives show at the top dose inhibition of complex formation | Q14974 | actives 0.031% (n = 340,000); calls by dose curve;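 also: 0% = DMSO wells and 100% = buffer wells lacking importin beta; nearly all actives have a fitted effect of over 15% in size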
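Inhibition scored from the CFP 486 nm/YFP 530 nm FRET ratio 45 min after adding 0.125 microM importin beta to 50 nM Rango biosensor preincubated 5 min with compound (room temperature, PBS with DTT, Tween-20, BSA). No-importin wells as positive control.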
An asterisk follows results filed as active; i = inactive; ? = inconclusive; / = no result given. Unless noted, calls follow the shape of the dose curve; as a rule, active = well fitted curve in the direction sought with a large enough effect; inconclusive = small, poorly fitted or top-dose-only effect, or another doubt; inactive = no such curve, though single readings can be large; an effect the other way counts as inactive or inconclusive. Potency is read from the fitted curve at half-maximal effect.

SMILES	ASM inhibitor	Vif-A3F inh	Rango dissoc inh	Vif-APOBEC3G blk	Eya2 inh	Rango-impB inh
CC(C)(C)n1ncc2c(=O)n(Cc3ccccc3Cl)cnc21	/	/	/	0%	/	/
CCOc1ccc(NC(=O)Cc2c[nH]c3ccccc23)cc1	/	2%	/	-6%	/	/
CCOC(=O)c1cccc(NC(=O)N2CC=C(c3c[nH]c4ccccc34)CC2)c1	/	5µM*	/	?	/	/
CCOc1ccc(NC(=O)N2CC=C(c3c[nH]c4ccccc34)CC2)cc1	/	28µM*	/	?	/	/
CCC[N+](C)(C)c1ccc(/C=C/c2ccnc3ccccc23)cc1	/	/	/	9%	/	/
COc1cc(/C=C2\SC(=S)N(NC(=O)c3ccc(O)cc3)C2=O)ccc1O	?	?	?	-22%	?	?
COc1cc(/C=C2\SC(=S)N(Nc3ncc(C(F)(F)F)cc3Cl)C2=O)ccc1O	?	22µM*	?	?	33%	?
Cc1cc(C)nc(NN2C(=O)/C(=C/c3ccccc3)SC2=S)n1	-7%	-12%	-22%	1%	-1%	4%
CN(C)c1ccc(/C=C2\SC(=S)N(Nc3ncc(C(F)(F)F)cc3Cl)C2=O)cc1	-10%	10µM*	?	?	?	?
Cc1ccc(CNC(=O)Cn2c(=O)n(-c3ccc(C)cc3)c(=O)c3c2c2cc(C)ccc2n3C)cc1	/	-6%	/	-4%	/	/
O=C(Oc1cccc2cccnc12)c1ccco1	2%	-7%	0%	?	-4%	-1%
O=C(Oc1ccc(Cl)c2cccnc12)c1ccco1	-1%	-7%	1%	11µM*	5%	-2%
CC(=O)Nc1sc2c(c1-c1nc3ccccc3s1)CN(C(C)C)CC2	13%	10µM*	?	13µM*	26%	?
CC1=CN2C(=N)/C(=C/c3ccco3)C(=O)N=C2S1	2%	-16%	?	-7%	3%	?
CC1=CN2C(=N)/C(=C/c3ccc([N+](=O)[O-])o3)C(=O)N=C2S1	-3%	?	?	22µM*	2%	?
O=C(O)c1ccccc1/C=N/Nc1ccc(S(=O)(=O)N2CCOCC2)cc1[N+](=O)[O-]	-3%	0%	12%	6.3µM*	7%	0%
COc1ccccc1C1CC(c2ccco2)=NN1c1ccccc1 (stereo unspecified)	i	-1%	16µM*	-5%	-1%	?
Fc1ccc(C2=NN(c3ccccc3)C(c3ccco3)C2)cc1 (stereo unspecified)	i	-2%	-19%	-5%	2%	?
COc1ccccc1N1CCN(C(c2cc3ccc(C)cc3[nH]c2=O)c2nnnn2C2CCCC2)CC1 (stereo unspecified)	0%	-8%	-3%	0%	-4%	58µM*
CN(C)c1ccc(C(=O)/C=C/c2ccc(Br)cc2)cc1	-5%	-3%	?	-2%	-2%	?
CCN(CC)c1ccc(/C=C/C(=O)c2ccc(Br)cc2)cc1	13%	25µM*	?	?	?	?
c1coc(-c2ccc3ncnc(NCc4cccs4)c3c2)c1	/	/	/	/	-18%	/
COC(=O)C1=CN(Cc2ccc(OC)c(OC)c2)C=C(C(=O)OC)C1c1cccc(F)c1	i	3%	5.8µM*	-5%	-23%	?
CCN(CC)c1ccc2cc(-c3nc4sc5c(c4c(=O)[nH]3)CCC(C(C)(C)C)C5)c(=O)oc2c1 (stereo unspecified)	/	?	/	10µM*	/	/
Cc1cc2[nH]c(=O)c(=O)[nH]c2cc1S(=O)(=O)N1CCN(c2cccc(Cl)c2)CC1	20µM*	-6%	1%	2%	-17%	0%
Cc1cc2[nH]c(=O)c(=O)[nH]c2cc1S(=O)(=O)N1CCN(c2cccc(C(F)(F)F)c2)CC1	20µM*	-3%	1%	-7%	-12%	1%
COc1ccc(-c2nc3sc(CCNC(=O)c4cc(OC)c(OC)c(OC)c4)c(C)n3n2)cc1	/	3%	/	-6%	/	/
CCS(=O)(=O)N1N=C(c2cccc(NS(C)(=O)=O)c2)CC1c1ccc(C)cc1 (stereo unspecified)	-1%	11µM*	-26%	?	10%	?
CS(=O)(=O)Nc1ccc(C2=NN(S(C)(=O)=O)C(c3ccc4nccnc4c3)C2)cc1 (stereo unspecified)	3%	22µM*	-1%	?	4%	?
CCN(CC)c1ccc(/C=C/c2ccc3ccccc3n2)cc1	/	/	/	3%	/	/
COc1ccc2c(c1)O/C(=C\c1sccc1C)C2=O	35%	-9%	10µM*	0%	12%	?
COc1ccc(/C=C2\Oc3ccccc3C2=O)cc1	13%	0%	5%	-7%	7%	0%
O=C(NC1CCCCCC1)c1ccc2c(c1)sc1nc(-c3ccccc3)cn12	/	5µM*	/	0%	/	/
COc1ccc(-c2cn3c(n2)sc2cc(C(=O)NC4CCCCC4)ccc23)cc1	/	6%	/	-4%	/	/
CCOC(=O)Nc1ccc2c3c(cccc13)-c1ccccc1-2	i	3.5µM*	?	?	/	?
Cc1sc2ncnc(N=Nc3c(O)[nH]c4ccccc34)c2c1C	-1%	22µM*	11%	-6%	-2%	-4%

Taken from above:
Vif-A3F inh result of CCOC(=O)Nc1ccc2c3c(cccc13)-c1ccccc1-2 stands at 3.5µM*
Vif-A3F inh result of O=C(NC1CCCCCC1)c1ccc2c(c1)sc1nc(-c3ccccc3)cn12 stands at 5µM*
Vif-A3F inh result of Cc1cc2[nH]c(=O)c(=O)[nH]c2cc1S(=O)(=O)N1CCN(c2cccc(Cl)c2)CC1 stands at -6%
Vif-A3F inh result of Cc1cc2[nH]c(=O)c(=O)[nH]c2cc1S(=O)(=O)N1CCN(c2cccc(C(F)(F)F)c2)CC1 stands at -3%

Sorted by the number under Eya2 inh (rising): four of the compounds above
mol	ASM inhibitor	Rango dissoc inh	Eya2 inh	Rango-impB inh
Cc1cc2[nH]c(=O)c(=O)[nH]c2cc1S(=O)(=O)N1CCN(c2cccc(Cl)c2)CC1	20µM*	1%	-17%	0%
Cc1cc2[nH]c(=O)c(=O)[nH]c2cc1S(=O)(=O)N1CCN(c2cccc(C(F)(F)F)c2)CC1	20µM*	1%	-12%	1%
Cc1sc2ncnc(N=Nc3c(O)[nH]c4ccccc34)c2c1C	-1%	11%	-2%	-4%
COc1ccc(/C=C2\Oc3ccccc3C2=O)cc1	13%	5%	7%	0%

Continued:
SMILES	ASM inhibitor	Vif-A3F inh	Rango dissoc inh	Vif-APOBEC3G blk	Eya2 inh	Rango-impB inh
COc1cccc(-c2ccc3c(N)c(C(=O)Nc4ccc(C)c(F)c4)sc3n2)c1	/	-7%	/	-4%	/	/
CC(C)OC(=O)c1sc2nc(-c3ccccc3)ccc2c1N	226%	-15%	?	-8%	-3%	?
COc1cccc(-c2ccc3c(N)c(C(=O)c4ccc(Cl)cc4)sc3n2)c1	/	?	/	10µM*	/	/
COc1ccc(C(=O)c2sc3nc(-c4ccccc4)ccc3c2N)cc1	-23%	3.5µM*	?	?	15%	?
Cc1ccc(CN2[C@H]3CCCC[C@@H]3OCCS2(=O)=O)cc1	/	/	/	2%	/	/
CCCN(C)CCCOc1cc2nc(N3CCCN(C)CC3)nc(NC3CCN(C)CC3)c2cc1OC	/	/	/	1%	/	/
Clc1ccc(/C=C/c2ccc3ccccc3n2)cc1Cl	/	/	/	2%	/	/
CC1C(=O)N2CCCc3cc(S(=O)(=O)NCCc4ccccc4)cc1c32 (stereo unspecified)	4%	3%	-10%	4%	2%	1%
COc1ccc(CCNS(=O)(=O)c2cc3c4c(c2)C(C)C(=O)N4CCC3)cc1OC (stereo unspecified)	3%	3%	16µM*	1%	-5%	-4%
CC(C)c1cccc(-c2ccc3c(c2)S(=O)(=O)c2cccc(C(=O)NCc4ccccc4Cl)c2C3=O)c1	-15%	11µM*	8%	0%	-22%	-1%
